In article PMC10865350, “Investigating Polypharmacology through Targeting Known Human Neutrophil Elastase Inhibitors to Proteinase 3” (Journal of Chemical Information and Modeling, 2024):
Where two headings read alike, the source gives them in different places.

Tests used:
Assay type in all cases: biochemical
[1] = test system: human neutrophil elastase (HNE); experiment: HNE inhibition IC50 reported by Bayer HealthCare AG (literature values); conditions: 298.15 K; calculated from Bayer HealthCare AG IC50 values, Nussbaum et al. refs 9-11
Excerpt: To ensure we had the best models to represent the selected ligands and their interactions with the protein, we explored four different force field combinations for protein and ligands (Table 2) and compared the predicted values to published experimental data for HNE. […] The predicted free energies obtained with MSλD are provided in Table S3 together with the free energies derived from published experimental data.

HNE = target: T1, HNE (Homo sapiens, UniProt P08246); experiment: Enzymatic activity assay, HNE (fluorogenic substrate MeOSuc-AAPV-AMC); conditions: best enantiomer for compounds 5-8
T1 construct: purchased Athens Research and Technology
T1 sequence (P08246 30-267): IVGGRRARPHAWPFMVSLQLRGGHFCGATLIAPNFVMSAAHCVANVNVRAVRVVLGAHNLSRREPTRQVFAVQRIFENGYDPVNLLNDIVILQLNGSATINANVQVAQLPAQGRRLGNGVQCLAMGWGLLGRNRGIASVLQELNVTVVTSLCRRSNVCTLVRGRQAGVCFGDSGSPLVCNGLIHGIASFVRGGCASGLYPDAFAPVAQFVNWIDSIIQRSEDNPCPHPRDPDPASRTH
Protocol: (§1) II.1 Experimental details
Chemicals. All chemicals and reagents were of analytical grade. Enzymes, PR3 and HNE, were purchased from Athens Research and Technology.
India) using published procedures.42 The substrate of HNE (MeOSuc-AAPV-AMC) was supplied by Santa Cruz Biotechnology.
Activity assay. The enzymatic assays for both PR3 and HNE were conducted according to the method published in (Budnjo et al., 2014) with minor modifications. Briefly, 0.5 nM of enzyme […]
same buffer containing the inhibitors at various concentrations for 30 min at RT. For PR3, the […]
(§2) 320, emission filter 420) at a final concentration of 5 μM while the HNE reaction was started by […]
(§3) at a final concentration of 5 μM. The fluorescent signal was read every 30 second for 30 min at 30 °C using a fluorescent plate reader (Tecan Spark). The enzymatic activity was measured from the initial linear portion of the slope (fluorescent signal/min) of the time-course curve of reaction progress. The activity data were produced in triplicates. Data were fitted using nonlinear regression analysis (GraphPad Prism v.9) to determine the IC50 values.

Proteinase 3 (PR3) = target: T2, Proteinase 3 (PR3) (Homo sapiens, UniProt P24158); experiment: Enzymatic activity assay, PR3 (FRET peptide Abz-VADnVADYQ-EDDnp); conditions: best enantiomer for compounds 5-8
T2 construct: purchased Athens Research and Technology
T2 sequence (P24158 28-256): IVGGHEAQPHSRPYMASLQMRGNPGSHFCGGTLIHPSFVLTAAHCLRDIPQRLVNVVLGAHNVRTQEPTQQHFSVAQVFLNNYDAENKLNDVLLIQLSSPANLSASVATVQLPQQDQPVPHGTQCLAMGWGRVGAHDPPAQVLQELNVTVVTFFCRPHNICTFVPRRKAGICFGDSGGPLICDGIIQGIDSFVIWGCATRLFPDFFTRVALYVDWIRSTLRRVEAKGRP
Protocol: as §1
Chemicals. All chemicals and reagents were of analytical grade. Enzymes, PR3 and HNE, were purchased from Athens Research and Technology. Compound 1 was purchased from Medchem Express while compounds 5-8 were prepared by Syngene International Limited (Bangalore, India) using published procedures.42 The substrate of HNE (MeOSuc-AAPV-AMC) was supplied by Santa Cruz Biotechnology.
Activity assay. The enzymatic assays for both PR3 and HNE were conducted according to the method published in (Budnjo et al., 2014) with minor modifications. Briefly, 0.5 nM of enzyme was incubated with buffer (50 mM HEPES pH 7.4, 750 mM NaCl, 0.5 % Igepal and 1 % DMSO) or same buffer containing the inhibitors at various concentrations for 30 min at RT. For PR3, the […]
as §2
as §3, with “Data were fitted using nonlinear regression analysis (GraphPad Prism v.9) to determine the IC50 values.” left out
Table S11. Experimentally determined potency for the racemates (±) and the S-enantiomers.

Compound: CC1=C(C#N)[C@@H](c2ccc(C#N)cc2S(C)(=O)=O)N(C)C(=O)N1c1cccc(C(F)(F)F)c1 [Compound 1, reference compound]
- ΔGexpt HNE (ΔG = RTln(IC50)) [1]: -13.8 kcal/mol
- IC50 (HNE; IC50 HNE, 0.5 nM enzyme, 5 μM substrate, triplicates): 0.5 ± 0.1 nM
- IC50 (HNE; pIC50 HNE): 0.501 nM
- IC50 (Proteinase 3 (PR3); 0.5 nM enzyme, 5 μM FRET peptide, triplicates, read-out: IC50 PR3): 101 ± 9 nM
- IC50 (Proteinase 3 (PR3); read-out: pIC50 PR3 (converted)): 100 nM
